The nature of data set [1]: Series of tests comparing cationic surfactants in the formulation.
A short description of data set [2]: Co-solvent materials for dissolution of sodium percarbonate. As to conditions: for Approximate Dissolution Time in De-ionized Water: 20% (w/v) sodium percarbonate.
Data set [3] can be described thus: Solubility of solid peroxides in water, filtrate titrated for hydrogen peroxide. As to conditions: for solubility in water: level needed for DF-200: at least 3.5 wt %; for Titrated wt % H2O2: solid for theoretical ~4 wt % H2O2, de-ionized water, stirred 15 min, room temperature, filtered.
Data set [4] can be described thus: Thermal analysis of solid peroxides (TGA and DSC, dry air). Conditions: onset of weight loss as measured by TGA.
For data set [5] the following is noted: cited from earlier work.
A short description of data set [6]: Solubility of sodium perborate with a complexing second material (sorbitol, mannitol). As to conditions: dissolved with secondary material (e.g., sorbitol, mannitol).
Data set [7] can be described thus: Summary of solid hydrogen peroxide material properties. Conditions: at solubility limit of 12%.
Data set [8] can be described thus: Oven stability testing of solid peroxides, cycling 30° C. to 70° C. every 24 hours. As to conditions: oven 30-70° C. cycle.

For the molecule `CCCCCCCCCCCC[N+](C)(C)C.[Cl-]`, in data set [1], the “efficacy as compared to other cationic surfactants” value is given as “superior efficacy” and the “foam stability as compared to other cationic surfactants” value was “best foam stability”.

For the molecule `OC[C@@H](O)[C@@H](O)[C@H](O)[C@@H](O)CO`, the “effect on precipitation of the potassium tetraborate” value in data set [2] (addition of 8% (w/v)) is recorded as “prevents the precipitation”.

For Ammonium Sulfate, in data set [2], the “Compatible with Seawater” value is recorded as “No”, the “Required Concentration (w/v) to dissolve 20% (w/v) sodium percarbonate” value is reported as 12% (w/v) and the “Approximate Dissolution Time in De-ionized Water” value (“Approximate Dissolution Time” for short) stood at 10 min.

As to Calcium Peroxide, in data set [3], the “solubility in water” value was “insoluble” and the “Titrated wt % H2O2” value is reported as <0.1 wt %. Also, the “Decomposition Temperature” value in data set [4] is >300 °C.

Consider Calcium/Magnesium Peroxide, for which the “Comments: dissolves only at pH” value in data set [5] is “at pH <2”.

For the molecule Potassium Citrate (tribasic), in data set [2], the “Compatible with Seawater” value is “Yes”, the “Required Concentration (w/v) to dissolve 20% (w/v) sodium percarbonate” value is 20% (w/v) and the “Approximate Dissolution Time” value amounted to 12 min. In data set [2] (saltwater), the “Comments: dissolution in saltwater” value is on record as “Very slow”.

On to Potassium Phosphate (dibasic), for which, in data set [2], the “Compatible with Seawater” value is given as “No”, the “Required Concentration (w/v) to dissolve 20% (w/v) sodium percarbonate” value is listed as 12% (w/v) and the “Approximate Dissolution Time” value amounted to 6 min.

Take Potassium Sulfate: in data set [2], the “Compatible with Seawater” value is “No”, the “Required Concentration (w/v) to dissolve 20% (w/v) sodium percarbonate” value is given as 12% (w/v) and the “Approximate Dissolution Time” value turned out to be 10 min.

In the case of Potassium Superoxide, in data set [3], the “Titrated wt % H2O2” value is listed as 4.8 ± 0.1 wt %. Further, the “Decomposition Temperature” value in data set [4] is >300 °C.

As to Potassium Tetraborate Tetrahydrate, in data set [2], the “Comments: precipitates from solution after” value is on record as “after ~4 hours”, the “Compatible with Seawater” value is “Yes”, the “Required Concentration (w/v) to dissolve 20% (w/v) sodium percarbonate” value is on record as 4% (w/v) and the “Approximate Dissolution Time” value came to 5 min.

Take Sodium Perborate Monohydrate: in data set [3], the “solubility in water” value is “slightly soluble” and the “Titrated wt % H2O2” value is recorded as 0.5 ± 0.1 wt %. For the same molecule, in data set [6], the “peroxide concentration that can be achieved” value was ≥ 3.5 wt %. Moreover, the “Decomposition Temperature” value in data set [4] came to 143 °C.

Sodium Percarbonate: in data set [7], the “hydrogen peroxide concentration yielded at solubility limit” value is on record as 3.6 % (w/v). For the same molecule, the “retained original peroxide content” value in data set [8] (after 120 days, best case) is given as “approximately 80%”.

Take “Sodium Percarbonate [Sodium Percarbonate (Provox)]”: the “Titrated wt % H2O2” value in data set [3] is 4.3 ± 0.1 wt %. Also, the “Decomposition Temperature” value in data set [4] is 137 °C.

On to Sodium Peroxide, for which, in data set [3], the “Titrated wt % H2O2” value turned out to be 4.7 ± 0.1 wt %. For the same molecule, the “time after which material degraded rapidly” value in data set [8] was “approximately 25 days”. The “Decomposition Temperature” value in data set [4] is >300 °C.

On to Urea Hydrogen Peroxide, for which the “Titrated wt % H2O2” value in data set [3] was 4.4 ± 0.1 wt %. Further, the “Decomposition Temperature” value in data set [4] stood at 59 °C.

For Zinc Peroxide, in data set [3], the “solubility in water” value was “insoluble” and the “Titrated wt % H2O2” value is listed as <0.1 wt %. The “Decomposition Temperature” value in data set [4] stood at 209 °C.

The values are drawn from patent publication US8741174B1, “Reduced weight decontamination formulation for neutralization of chemical and biological warfare agents” (dated 2014).
